For experiment [1], the target named is rM4 (Rattus norvegicus, UniProt P08485). Kind of experiment: Calcium mobilization assay with rM4/Gqi5-CHO cells, EC20 acetylcholine. The format is cell-based. As to conditions: read-out: rM4 EC50, n=3. On the technique in general: Calcium flux is commonly read through the fluorescence of an indicator in the cells.
For experiment [2], the target named is hM4 (Homo sapiens, UniProt P08173). Kind of experiment: Calcium mobilization assay with hM4/Gqi5-CHO cells, EC20 acetylcholine. As to conditions: read-out: hM4 EC50, n=3. The format is cell-based.

By UniProt entry, the sequences of proteins in these tests, tags left out.
UniProt P08485, whole entry: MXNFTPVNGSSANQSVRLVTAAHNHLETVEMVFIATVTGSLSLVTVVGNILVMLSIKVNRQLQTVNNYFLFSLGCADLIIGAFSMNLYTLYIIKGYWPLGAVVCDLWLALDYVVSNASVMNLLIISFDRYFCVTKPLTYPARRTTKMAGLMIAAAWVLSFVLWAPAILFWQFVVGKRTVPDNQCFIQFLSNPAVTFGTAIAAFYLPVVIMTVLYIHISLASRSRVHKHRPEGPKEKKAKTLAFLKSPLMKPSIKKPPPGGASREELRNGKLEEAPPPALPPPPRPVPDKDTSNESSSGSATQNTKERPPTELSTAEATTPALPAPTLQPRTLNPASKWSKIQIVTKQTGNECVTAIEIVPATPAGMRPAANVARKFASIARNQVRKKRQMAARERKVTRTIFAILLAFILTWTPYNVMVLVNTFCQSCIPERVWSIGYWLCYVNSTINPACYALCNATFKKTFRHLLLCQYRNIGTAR
UniProt P08173, whole entry: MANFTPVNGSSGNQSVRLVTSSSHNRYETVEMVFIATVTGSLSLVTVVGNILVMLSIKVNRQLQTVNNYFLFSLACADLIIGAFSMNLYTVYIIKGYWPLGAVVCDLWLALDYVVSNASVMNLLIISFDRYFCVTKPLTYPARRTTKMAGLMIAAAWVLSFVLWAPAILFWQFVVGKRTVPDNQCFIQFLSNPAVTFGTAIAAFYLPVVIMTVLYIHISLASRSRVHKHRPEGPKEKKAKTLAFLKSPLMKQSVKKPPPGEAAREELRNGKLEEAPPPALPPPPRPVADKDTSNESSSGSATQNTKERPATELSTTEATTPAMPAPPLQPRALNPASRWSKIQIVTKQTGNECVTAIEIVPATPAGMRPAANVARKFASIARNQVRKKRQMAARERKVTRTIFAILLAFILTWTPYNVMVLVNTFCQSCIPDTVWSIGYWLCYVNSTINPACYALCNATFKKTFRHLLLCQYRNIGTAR

What is called EC50 is the concentration that produces a half-maximal response.

As to `Cc1nnc2sc(C(=O)NCc3ccc(S(=O)(=O)C(F)(F)F)cc3)c(N)c2c1C` [compound 5], the results for the concentration for a half-maximal effect (EC50) in experiment [1] and in experiment [2] were 0.0178 µM and 0.631 µM, respectively.

The record behind these values is publication PMC5340297 (Bioorganic & medicinal chemistry letters, 2016).
